Assay results taken from patent publication US10125112B2, “Modulators of the relaxin receptor 1” (The United States of America, as Represented by the …, priority 2012, dated 2018).
Where two headings read alike, the source gives them in different places.

Key:
[1] = test system: VEGF gene expression in THP1 cells; test: VEGF gene expression in THP1 cells (qRT-PCR); format: cell-based, human; details: 2 hours treatment, normalized to GAPDH
Source text: This example illustrates the activation of VEGF expression in THP1 cells by several embodiments of the disclosure.
THP1 cells (human acute monocytic leukemia cell line) were used to analyze the stimulation of VEGF gene expression after treatment with relaxin or compounds. The VEGF stimulation in these cultured endometrial cells is a well-established property of relaxin.^19 This effect is most probably responsible for the observed angiogenic and neovascularization properties of relaxin in various settings.^20 400,000 THP1 cells (0.4 mL at 1×10^6 cells/mL) in test media (RPMI-1640 without phenol red, 0.5% FBS, Ix Pen/Strep, 0.05 mM of 2-mercaptoethanol) were seeded in each well on a 24-well plate. After 24 hours incubation at 37° C., 5% CO2, relaxin or compounds were added for 2 hours. The cells were harvested and RNA was extracted by the Trizol (Invitrogen, Carlsbad, Calif.) method according to manufacturers' instructions. cDNA was synthesized by using Verso cDNA kit (Thermo Scientific, Waltham, Mass.) according to manufacturer's protocol. Quantitative real time RT-PCR for VEGF and GAPDH gene expression was done using a Roche LightCycler 480 (Roche Diagnostics, Indianapolis, Ind.) with the appropriate set of primers and probes spanning different exons. The relative fold change in VEGF mRNA level was calculated by the comparative Ct (2-ΔΔ^Ct) method using GAPDH expression for normalization of RNA.
The results are set forth in Table 8 as relative VEGF gene expression relative to control.

[2] = biological target: T1, RXFP1 (Homo sapiens, UniProt Q9HBX9); test: RXFP1 cAMP assay in HEK293-RXFP1 cells (HTRF); format: cell-based
T1 construct: expressed in transfected cells
T1 sequence (Q9HBX9 1-757): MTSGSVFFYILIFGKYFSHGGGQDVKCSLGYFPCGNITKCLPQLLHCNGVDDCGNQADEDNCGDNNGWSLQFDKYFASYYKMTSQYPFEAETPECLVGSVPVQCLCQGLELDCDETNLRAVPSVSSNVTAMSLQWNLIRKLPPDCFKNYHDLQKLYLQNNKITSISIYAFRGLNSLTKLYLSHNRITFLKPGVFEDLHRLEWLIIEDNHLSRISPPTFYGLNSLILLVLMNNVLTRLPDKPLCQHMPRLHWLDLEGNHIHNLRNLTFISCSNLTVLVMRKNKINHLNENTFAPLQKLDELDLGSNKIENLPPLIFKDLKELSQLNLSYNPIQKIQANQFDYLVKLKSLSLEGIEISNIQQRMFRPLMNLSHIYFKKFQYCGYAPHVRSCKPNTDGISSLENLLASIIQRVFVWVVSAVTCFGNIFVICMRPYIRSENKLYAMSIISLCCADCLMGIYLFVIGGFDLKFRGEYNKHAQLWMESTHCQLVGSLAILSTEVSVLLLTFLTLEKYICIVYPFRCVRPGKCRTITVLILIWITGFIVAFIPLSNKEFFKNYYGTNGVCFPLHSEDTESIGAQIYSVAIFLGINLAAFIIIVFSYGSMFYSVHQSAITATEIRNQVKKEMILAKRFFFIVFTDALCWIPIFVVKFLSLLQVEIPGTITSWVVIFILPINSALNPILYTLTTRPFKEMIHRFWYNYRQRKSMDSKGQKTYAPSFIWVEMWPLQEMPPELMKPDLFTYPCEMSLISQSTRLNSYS

[3] = ATP Cytotoxicity assay (ATPLite) in HEK293-RXFP1 cells; format: cell-based; details: human, inactive = Maximum response less than 30%, read-out: ATP Tox. EC50 (μM, Max. Resp.): EC50

Row | SMILES | Relative VEGF gene expression (control = 1.0) [1] | other results
1 | COc1ccccc1C(=O)Nc1ccccc1C(=O)Nc1cccc(S(=O)(=O)C(F)(F)F)c1 [Compound 159, 2-Methoxy-N-(2-((3-((trifluoromethyl)sulfonyl)phenyl)carbamoyl)phenyl)benzamide] | 1.4 | –
2 | CCOc1ccccc1-c1nc2ccccc2c2nc3ccc(C(F)(F)F)cc3n12 [Example 142] | – | Emax ([2]; percentage of the maximal receptor activation induced by high concentrations of forskolin, Tables 1-7, read-out: Max Response): 34%
3 | CCOc1ccccc1C(=O)Nc1ccccc1C(=O)Nc1cccc(S(=O)(=O)C(F)(F)F)c1 [Example 174, 2-Ethoxy-N-(2-((3-((trifluoromethyl)sulfonyl)phenyl)carbamoyl)phenyl)benzamide] | 2.3 | –
4 | O=C(Nc1cccc(S(=O)(=O)C(F)(F)F)c1)c1ccccc1NC(=O)c1ccccc1OCC(F)(F)F [Example 177, 2-(2,2,2-Trifluoroethoxy)-N-(2-((3-((trifluoromethyl)sulfonyl)phenyl)carbamoyl)phenyl)benzamide] | 1.3 | –
5 | CC(C)Oc1ccccc1C(=O)Nc1ccccc1C(=O)Nc1cccc(S(=O)(=O)C(F)(F)F)c1 [Example 178] | – | Emax ([2]; read-out: Max Response): 98%; Emax ([2]; read-out: RXFP1 AC50 (μM, Max. Resp.): Max. Resp.): 98%
6 | CCCCOc1ccccc1C(=O)Nc1ccccc1C(=O)Nc1cccc(S(=O)(=O)C(F)(F)F)c1 [Example 180, 2-Butoxy-N-(2-((3-((trifluoromethyl)sulfonyl)phenyl)carbamoyl)phenyl)benzamide] | 1.6 | –
7 | CCCCOc1ccccc1C(=O)Nc1ccccc1C(=O)Nc1cccc(S(=O)(=O)C(F)(F)F)c1 [Example 180] | – | EC50 at 72 h [3]: 59.3 µM
